Test: Metabolic stability in human liver microsomes
Protocol: Metabolic stability analysis was performed as outlined in Lu et al..
Preparation of solutions. Test compound was weighed and dissolved in 100% DMSO to get 10 mM stock solution. The stock solution was diluted to 100 μM with mixture of acetonitrile and H2O (1:1). The final concentrations of DMSO and acetonitrile were equal to or less than 0.1%. […]
Microsomal incubation. Liver microsomes incubations were conducted in duplicate in 96-well plates. […] Reactions were terminated at various time points (0, 5, 10, 20, 40 min) by adding 150 µL of ice-cold methanol and acetonitrile (1:1, v/v) containing the internal standard.
LC-MS/MS analysis: A Waters liquid chromatographic system was used. […] The flow rate was maintained at 0.6 mL/min. Detection was performed on an API4000 Q-Trap mass spectrometer equipped with TurboIonSpray (ESI) Interface (Applied Biosystems, Concord, Ontario, Canada). Analyst 1.5 software packages (Applied Biosystems) were used to control the LC-MS/MS system, and for data acquisition and processing.
Data analysis: The peak area ratio of a test compound to internal standard was plotted as a percentage of the relevant zero time point control (%remaining) for each reaction. The rate of metabolism (k) is the slope of the linear regression from log percentage remaining versus incubation time.

## C[C@]12CC[C@H]3[C@@H](CCC4=CC(=O)CC[C@@]43C)[C@@H]1CC[C@@H]2O [Testosterone, reference compound]
(Clh/Q) × 100
  Eh (hepatic extraction ratio): 83.19%
human, microsomes, pH 7.4
  Clint: 102.7 µL/min/mg
  T1/2: 13.5 min
